Active and inactive are the calls of the source. No cut-off for these calls is given here.
Target: Kappa-type opioid receptor (Homo sapiens, UniProt P41145)
Test: Agonist activity at kappa opioid receptor in ATP stimulated human HaCaT cells assessed as reduction in intracellular Ca2+ release at 1 uM after 45 mins by FURA-2AM dye based luminescence spectrophotometry method
Assay type: functional, cell-based

Chains of the proteins cited; added tags and fusions are not shown. Lines headed by an entry give the natural chain unless they say otherwise; changes in a name come on top.
UniProt P41145: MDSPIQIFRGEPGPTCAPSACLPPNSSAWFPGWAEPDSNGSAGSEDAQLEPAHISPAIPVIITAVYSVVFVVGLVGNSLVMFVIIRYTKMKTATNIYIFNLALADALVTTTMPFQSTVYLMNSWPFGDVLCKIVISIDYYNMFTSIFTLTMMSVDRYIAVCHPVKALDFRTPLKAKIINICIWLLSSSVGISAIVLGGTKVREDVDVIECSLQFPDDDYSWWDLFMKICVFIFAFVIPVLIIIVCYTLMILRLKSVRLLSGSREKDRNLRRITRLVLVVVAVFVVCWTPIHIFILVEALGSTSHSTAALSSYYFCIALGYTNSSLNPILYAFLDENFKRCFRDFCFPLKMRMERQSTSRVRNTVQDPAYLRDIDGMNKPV

O=C(Cc1ccc(Cl)c(Cl)c1)N1CCNC2CCCC(N3CCCC3)C21 (stereo unspecified)
inhibition: Active
